Source: PMC7677376 (Cell Discovery, 2020)

Tested on: Nc1ncnc2c1ncn2[C@@H]1O[C@H](COP(=O)(O)OP(=O)(O)OP(=O)(O)O)[C@@H](O)[C@H]1O
Test: purified protein
Conditions: MlaFEDB complex; ATP hydrolysed at MlaF

For MlaFEDB (Acinetobacter baumannii), the Km was 0.085 ± 0.005 mM.
